Laboratory results published in ChEMBL document CHEMBL2311383, “Discovery of piperazin-1-ylpyridazine-based potent and selective stearoyl-CoA desaturase-1 inhibitors for the treatment of obesity and metabolic syndrome” (J Med Chem, 2013).

Target: T1, Acyl-CoA desaturase 1 (Mus musculus, UniProt P13516)
T1 sequence (P13516 whole entry): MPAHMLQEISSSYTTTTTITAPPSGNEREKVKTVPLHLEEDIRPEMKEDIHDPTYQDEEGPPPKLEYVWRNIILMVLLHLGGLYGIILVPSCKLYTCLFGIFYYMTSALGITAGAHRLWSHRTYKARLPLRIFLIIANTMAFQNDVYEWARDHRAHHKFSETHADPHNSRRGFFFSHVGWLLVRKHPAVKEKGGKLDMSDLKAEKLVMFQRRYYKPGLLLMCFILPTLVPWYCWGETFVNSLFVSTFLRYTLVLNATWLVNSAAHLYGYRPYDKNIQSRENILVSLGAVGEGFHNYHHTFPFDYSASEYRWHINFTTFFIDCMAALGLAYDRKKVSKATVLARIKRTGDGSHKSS
Assay: Inhibition of SCD1 in ICR mouse liver microsome using [9,10 3H]- stearoyl-Coenzyme A substrate assessed as decreased production of tritiated water after 20 min by scintillation counting analysis

- IC50: 0.01 µM
SMILES: O=C(NCCCCC1CC1)c1ccc(N2CCN(C(=O)c3ccccc3C(F)(F)F)CC2)nn1
